In PubChem BioAssay AID1434 (Sanford-Burnham Center for Chemical Genomics, 2008):
Only a part is listed here, and it is no random draw. Some of these compounds have results that are not shown, active ones among them. Calls of active or inactive are those of the source.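 The calls were made as follows: active = mean inhibition across duplicate retests at 20 µM reaching about 50% (limit read from the data); inactive = the rest, inconclusive results apart.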

Protein sequences, listed by entry. Tags and fused reporters are not part of them.
UniProt Q01196, whole entry, looked up: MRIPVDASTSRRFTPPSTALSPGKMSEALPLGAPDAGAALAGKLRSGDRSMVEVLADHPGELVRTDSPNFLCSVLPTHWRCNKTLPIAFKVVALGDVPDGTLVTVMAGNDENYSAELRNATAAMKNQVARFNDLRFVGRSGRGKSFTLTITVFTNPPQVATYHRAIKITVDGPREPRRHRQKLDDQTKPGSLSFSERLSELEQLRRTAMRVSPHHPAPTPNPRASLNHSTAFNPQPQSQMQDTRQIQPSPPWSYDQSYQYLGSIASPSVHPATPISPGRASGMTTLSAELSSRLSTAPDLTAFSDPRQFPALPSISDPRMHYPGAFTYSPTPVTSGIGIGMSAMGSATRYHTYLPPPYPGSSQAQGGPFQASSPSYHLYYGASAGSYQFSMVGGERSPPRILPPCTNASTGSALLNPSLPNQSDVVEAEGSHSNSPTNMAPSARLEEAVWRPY
UniProt Q13951, whole entry, looked up: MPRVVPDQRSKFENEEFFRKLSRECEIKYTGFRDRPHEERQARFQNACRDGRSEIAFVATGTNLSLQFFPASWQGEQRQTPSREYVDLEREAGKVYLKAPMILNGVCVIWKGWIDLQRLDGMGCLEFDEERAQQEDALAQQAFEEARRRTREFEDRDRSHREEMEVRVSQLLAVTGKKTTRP

Each compound was assayed against Runt-related transcription factor 1 (Homo sapiens) + Core-binding factor subunit beta (Homo sapiens) (UniProt Q01196+Q13951) (assay: inhibitors of RUNX1 Runt–CBFb-SMMHC binding, primary screen, biochemical, FRET, Cerulean-Runt, Venus-CBFb-SMMHC, uHTS (AID 1434;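 also: 0% = DMSO wells and 100% = wells with excess untagged CBFb-SMMHC; inhibitors lower the FRET ratio by blocking Runt binding to CBFb-SMMHC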)). Conditions: Cerulean-Runt/Venus-CBFb-SMMHC FRET ratio 530/480, 1 h; at 20 µM; hits give high values.

Structure (SMILES)	inhibition
O=C(OC1CN2CCC1CC2)C(CO)(c1ccccc1)c1ccccc1 (stereo unspecified)	inactive: -2.6%
COc1ccc(Br)c(C(=O)NCC2(N3CCCCC3)CCCCC2)c1	inactive: -1.8%
CN(C)c1cccc(C(=O)NCC2(N(C)C)CCCCC2)c1	inactive: 13.9%
COc1cccc(C(=O)NCC2(N3CCCCC3)CCCCC2)c1	inactive: -1.7%
Cc1ccccc1C(=O)NCC1(N2CCCCC2)CCCCC1	inactive: 10.9%
CN(C)C1CCCC1OC(=O)C(O)(c1ccccc1)c1ccccc1 (stereo unspecified)	inactive: 0.6%
C=CCN1CCN(CCOC(=O)C(O)(c2ccccc2)c2ccccc2)CC1	inactive: -0.8%
CCN1CCCC(OC(=O)C2(O)c3ccccc3C=Cc3ccccc32)C1 (stereo unspecified)	inactive: 0.6%
O=C(NCC1(N2CCCCC2)CCCCC1)c1cc([N+](=O)[O-])ccc1Cl	inactive: 0.2%
CCN(CC)CC(C)C(C)OC(=O)C(O)(c1ccccc1)c1ccccc1 (stereo unspecified)	inactive: -1.1%
CC(C)N1C(=O)CC2(CCN(CCOC(=O)C(O)(c3ccccc3)c3ccccc3)CC2)C1=O	inactive: -7.9%
